Among the data in ChEMBL document CHEMBL5055648, “Design, synthesis, and biological evaluation of novel Bcr-AblT315I inhibitors incorporating amino acids as flexible linker” (Bioorg Med Chem, 2021) are fold change (FC) values, retold here.

Sequences of proteins named here, by UniProt entry; tags and fusion partners are left off. A change or cut given only in a name is not applied to a line headed by its entry.
UniProt P00519, whole entry, looked up: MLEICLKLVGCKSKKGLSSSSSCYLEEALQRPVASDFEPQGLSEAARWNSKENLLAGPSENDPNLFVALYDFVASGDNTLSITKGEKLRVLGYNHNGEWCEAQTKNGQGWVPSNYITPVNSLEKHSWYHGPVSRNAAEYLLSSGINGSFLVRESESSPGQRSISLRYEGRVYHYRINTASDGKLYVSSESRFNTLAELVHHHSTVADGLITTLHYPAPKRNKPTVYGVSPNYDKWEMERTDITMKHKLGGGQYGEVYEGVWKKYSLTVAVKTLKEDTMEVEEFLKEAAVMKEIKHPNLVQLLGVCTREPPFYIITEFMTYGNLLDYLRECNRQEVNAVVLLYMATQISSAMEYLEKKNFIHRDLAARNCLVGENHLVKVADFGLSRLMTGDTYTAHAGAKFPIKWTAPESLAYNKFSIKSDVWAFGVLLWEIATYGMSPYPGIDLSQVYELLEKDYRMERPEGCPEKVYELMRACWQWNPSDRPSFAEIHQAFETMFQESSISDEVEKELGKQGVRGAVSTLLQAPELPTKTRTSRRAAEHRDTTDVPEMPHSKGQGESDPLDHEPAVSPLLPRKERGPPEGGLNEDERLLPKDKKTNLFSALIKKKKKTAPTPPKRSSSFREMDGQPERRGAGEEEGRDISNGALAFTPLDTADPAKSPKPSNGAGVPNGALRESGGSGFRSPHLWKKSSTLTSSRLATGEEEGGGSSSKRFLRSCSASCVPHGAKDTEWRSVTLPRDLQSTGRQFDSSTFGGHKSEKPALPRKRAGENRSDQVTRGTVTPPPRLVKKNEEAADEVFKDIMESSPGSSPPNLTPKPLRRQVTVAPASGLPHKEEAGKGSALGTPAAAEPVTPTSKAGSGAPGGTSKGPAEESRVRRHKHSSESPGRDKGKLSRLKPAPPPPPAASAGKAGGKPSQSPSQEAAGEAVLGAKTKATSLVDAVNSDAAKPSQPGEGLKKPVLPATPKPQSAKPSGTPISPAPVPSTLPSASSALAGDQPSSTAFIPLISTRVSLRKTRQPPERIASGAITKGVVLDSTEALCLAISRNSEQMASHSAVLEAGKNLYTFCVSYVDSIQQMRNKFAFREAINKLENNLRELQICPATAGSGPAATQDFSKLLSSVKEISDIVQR
UniProt P11274: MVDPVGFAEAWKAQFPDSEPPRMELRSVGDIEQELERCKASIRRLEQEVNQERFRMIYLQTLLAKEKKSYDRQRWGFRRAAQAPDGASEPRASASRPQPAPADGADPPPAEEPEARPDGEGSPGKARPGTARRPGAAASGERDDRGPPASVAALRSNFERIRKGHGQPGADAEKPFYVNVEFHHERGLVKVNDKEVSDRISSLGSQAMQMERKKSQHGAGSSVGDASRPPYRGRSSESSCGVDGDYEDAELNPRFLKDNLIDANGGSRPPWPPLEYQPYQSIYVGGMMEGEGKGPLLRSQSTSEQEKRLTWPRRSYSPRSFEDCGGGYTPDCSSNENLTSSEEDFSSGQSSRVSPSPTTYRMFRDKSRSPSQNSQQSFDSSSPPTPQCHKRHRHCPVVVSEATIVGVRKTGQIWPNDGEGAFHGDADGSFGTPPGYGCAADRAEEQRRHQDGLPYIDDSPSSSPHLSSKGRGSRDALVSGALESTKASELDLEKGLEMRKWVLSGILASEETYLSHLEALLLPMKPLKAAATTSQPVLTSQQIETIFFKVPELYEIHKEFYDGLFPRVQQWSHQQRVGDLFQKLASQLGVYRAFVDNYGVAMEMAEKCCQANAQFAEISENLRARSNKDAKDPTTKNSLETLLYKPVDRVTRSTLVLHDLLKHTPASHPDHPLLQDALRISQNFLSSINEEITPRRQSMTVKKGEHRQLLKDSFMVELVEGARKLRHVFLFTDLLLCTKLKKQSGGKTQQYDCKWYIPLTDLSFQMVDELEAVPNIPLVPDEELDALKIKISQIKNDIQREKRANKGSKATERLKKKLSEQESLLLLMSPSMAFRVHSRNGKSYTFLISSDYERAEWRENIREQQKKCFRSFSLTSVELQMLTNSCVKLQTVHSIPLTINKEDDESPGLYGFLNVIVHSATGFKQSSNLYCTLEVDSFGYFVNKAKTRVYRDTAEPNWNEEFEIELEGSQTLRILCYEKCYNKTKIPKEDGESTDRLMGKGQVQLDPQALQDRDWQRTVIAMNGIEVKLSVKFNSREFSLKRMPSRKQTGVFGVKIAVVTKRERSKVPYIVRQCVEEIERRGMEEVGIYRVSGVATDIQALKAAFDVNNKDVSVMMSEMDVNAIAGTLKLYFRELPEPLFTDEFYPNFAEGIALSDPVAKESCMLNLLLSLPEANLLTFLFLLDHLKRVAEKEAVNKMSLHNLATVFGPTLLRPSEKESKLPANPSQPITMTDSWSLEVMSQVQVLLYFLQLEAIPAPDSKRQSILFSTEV

In assay [1] the target is T1, Bcr/Abl fusion protein (Homo sapiens) (UniProt P00519+P11274). Nature of the assay: Inhibition of Bcr-Abl phosphorylation in human K562 cells assessed as phosphorylated ABL protein level at 5 uM measured after 48 hrs by Western blot analysis. The format is cell-based. (In western blotting, separated proteins are transferred to a membrane and probed.)
Assay [2] has as its target T1, Bcr/Abl fusion protein (Homo sapiens). Nature of the assay: Inhibition of Bcr-Abl phosphorylation in human K562 cells assessed as phosphorylated ABL protein level at 15 uM measured after 48 hrs by Western blot analysis. The format is cell-based.

Each structure is given as a SMILES string.

Turning to `C[C@H](NC(=O)c1ccc(-c2ccc(NC(=O)C(C)(C)C)nc2)cc1)C(=O)Nc1ccc(Cl)c(C(F)(F)F)c1`, the fold change (FC) came to 0.593 in assay [1] and 0.332 in assay [2].
